Measurements from patent US10815241B2, “Optically active azabicyclo ring derivative” (priority 2018, dated 2020).
pIC50: −log10 of the molar value.

Chains of the proteins cited; added tags and fusions are not shown.
UniProt Q12809, whole entry: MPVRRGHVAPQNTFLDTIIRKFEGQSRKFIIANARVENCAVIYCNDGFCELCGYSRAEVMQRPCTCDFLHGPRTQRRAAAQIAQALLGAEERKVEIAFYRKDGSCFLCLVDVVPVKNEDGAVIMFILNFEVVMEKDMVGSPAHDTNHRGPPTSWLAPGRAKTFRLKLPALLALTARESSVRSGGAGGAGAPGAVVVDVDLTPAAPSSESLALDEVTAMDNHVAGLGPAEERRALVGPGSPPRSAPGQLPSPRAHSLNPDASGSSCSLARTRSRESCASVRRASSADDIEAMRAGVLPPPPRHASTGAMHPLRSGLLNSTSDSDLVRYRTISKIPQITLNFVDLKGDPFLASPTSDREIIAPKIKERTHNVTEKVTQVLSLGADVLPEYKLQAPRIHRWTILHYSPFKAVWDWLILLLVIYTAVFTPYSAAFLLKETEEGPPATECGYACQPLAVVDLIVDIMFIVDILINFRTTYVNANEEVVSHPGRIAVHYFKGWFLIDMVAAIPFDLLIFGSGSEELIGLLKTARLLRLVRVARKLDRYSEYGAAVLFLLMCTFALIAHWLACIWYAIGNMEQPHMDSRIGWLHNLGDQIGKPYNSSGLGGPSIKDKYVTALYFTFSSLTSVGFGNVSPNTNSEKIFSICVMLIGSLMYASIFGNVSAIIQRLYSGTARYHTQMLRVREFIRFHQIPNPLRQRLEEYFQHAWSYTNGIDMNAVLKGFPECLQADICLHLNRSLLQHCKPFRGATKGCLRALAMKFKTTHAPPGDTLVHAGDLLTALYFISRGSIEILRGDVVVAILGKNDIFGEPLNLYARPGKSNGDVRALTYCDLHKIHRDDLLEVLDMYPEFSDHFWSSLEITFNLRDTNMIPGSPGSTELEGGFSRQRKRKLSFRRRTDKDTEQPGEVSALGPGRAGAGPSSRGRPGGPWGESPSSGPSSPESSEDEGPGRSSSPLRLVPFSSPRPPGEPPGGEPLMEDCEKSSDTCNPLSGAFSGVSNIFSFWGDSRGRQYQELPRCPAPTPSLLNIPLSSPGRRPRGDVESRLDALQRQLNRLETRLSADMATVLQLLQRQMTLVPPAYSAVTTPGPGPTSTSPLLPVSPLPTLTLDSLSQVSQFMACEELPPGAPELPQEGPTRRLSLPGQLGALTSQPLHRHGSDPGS

Legend:
Assay type in all cases: cell-based
RS4; 11 cells = experiment: Test 2: inhibition of cell proliferation, RS4;11; conditions: read-out: IC50 RS4, 7 days, PrestoBlue cell viability
MOLM-13 cells = experiment: Test 2: inhibition of cell proliferation, MOLM-13; conditions: read-out: IC50 MOLM-13, 7 days, PrestoBlue cell viability
[1] = target: hERG (human Ether-a-go-go Related Gene) (Homo sapiens (Human), UniProt Q12809); experiment: Test 4: hERG inhibition (QPatch HT, CHO cells stably expressing hERG); conditions: read-out: hERG inhibition IC50, hERG current

CC(C)N(C(=O)c1cc(F)ccc1Oc1cncnc1N1CC2(CCN(C(=O)[C@H]3N[C@H]4CC[C@@H]3[C@H](O)C4)CC2)C1)C(C)C
pIC50 (RS4; 11 cells): < 5.52
pIC50 (MOLM-13 cells): 5.80
pIC50 [1]: < 4.00
